Source: PubChem BioAssay AID588456 (National Center for Advancing Translational Sciences (NCATS), 2011)
Only a part is listed here, and it is no random draw. Calls of active or inactive are those of the source. Calls come from the whole dose curve; as a rule, active = well fitted inhibition curve with a large enough effect; inconclusive = small, poorly fitted or top-dose-only effect; inactive = no such curve, though single readings can be large or run the other way.

Sequences of proteins named here, by UniProt entry; tags and fusion partners are left off.
UniProt O89049, whole entry: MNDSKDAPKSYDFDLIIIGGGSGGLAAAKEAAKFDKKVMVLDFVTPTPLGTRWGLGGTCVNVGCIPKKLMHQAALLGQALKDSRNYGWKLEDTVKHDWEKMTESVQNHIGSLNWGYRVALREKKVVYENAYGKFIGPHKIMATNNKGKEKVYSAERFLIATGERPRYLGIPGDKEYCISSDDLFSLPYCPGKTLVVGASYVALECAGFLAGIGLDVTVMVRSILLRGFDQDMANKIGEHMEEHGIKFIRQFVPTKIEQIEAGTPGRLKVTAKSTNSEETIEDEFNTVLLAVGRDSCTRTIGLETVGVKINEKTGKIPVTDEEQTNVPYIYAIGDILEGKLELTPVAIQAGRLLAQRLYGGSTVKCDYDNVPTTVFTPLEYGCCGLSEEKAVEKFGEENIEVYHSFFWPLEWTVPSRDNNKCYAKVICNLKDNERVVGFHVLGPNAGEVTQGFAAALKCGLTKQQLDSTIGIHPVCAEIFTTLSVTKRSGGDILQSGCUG

target: Thioredoxin reductase 1, cytoplasmic (Rattus norvegicus) (UniProt O89049); experiment: qHTS Assay for Substrates of Mammalian Selenoprotein Thioredoxin Reductase 1 (TrxR1): qHTS; details: purified TrxR1 substrate turnover, NADPH consumption readout; at 114 µM (top of the series) unless noted; note: nearly all actives have a fitted effect of over 50% in size
% is set by controls: 0 for no effect and ±100 for the full control effect.

Row | SMILES | activity change, negative = substrate turnover
1 | CN(C)C(=O)c1c([N+](=O)[O-])cc([N+](=O)[O-])cc1[N+](=O)[O-] | inactive: -0.301%
2 | COc1ccc(OP(C)(=O)Nc2ccc(Br)cc2)cc1 (stereo not given) | inactive: -1.2%
3 | CCN(CC)CC(O)COC(=O)C(O)(c1ccccc1)C1CCCCC1 (stereo not given) | inactive: -4.16%
4 | N#[O+].[C-]#N.[C-]#N.[C-]#N.[C-]#N.[C-]#N.[Fe+2].[Na+].[Na+] | inactive: 5.5% [at 57.1 µM]
5 | O=C(OCCCN1CCCC1)C(O)(c1ccccc1)C1CCCCC1 (stereo not given) | inactive: -1.12% [at 57.1 µM]
6 | COc1ccccc1OP(C)(=O)Nc1c(C)n(C)n(-c2ccccc2)c1=O (stereo not given) | inactive: 6.35%
7 | CCc1ccc(OP(C)(=O)Nc2cccnc2)cc1 (stereo not given) | inactive: 3.46%
8 | CP(=O)(Oc1ccccc1)N1CCOC1=O (stereo not given) | inactive: 2.77% [at 57.1 µM]
9 | Nc1ccc2c(ccc3cccnc32)n1.O=[N+]([O-])c1cc([N+](=O)[O-])c(O)c([N+](=O)[O-])c1 | inactive: 10.9%
10 | CCOC(=O)c1ccc(NP(C)(=O)Oc2ccc(Cl)cc2)cc1 (stereo not given) | inactive: -6.71%
11 | CP(=O)(OC12CC3CC(CC(C3)C1)C2)OC12CC3CC(CC(C3)C1)C2 | inactive: 6.36%
12 | O=[N+]([O-])c1ccc(OP2(=O)COCCO2)cc1 (stereo not given) | inactive: -19.1%
13 | Cc1cc(-c2cccc3ccccc23)c(C)cn1.O=[N+]([O-])c1cc([N+](=O)[O-])c(O)c([N+](=O)[O-])c1 | inactive: -18.6%
14 | Cc1c(C(c2ccc3c(c2)OCO3)c2c(C)n(C)n(-c3ccccc3)c2=O)c(=O)n(-c2ccccc2)n1C.O=[N+]([O-])c1cc([N+](=O)[O-])c(O)c([N+](=O)[O-])c1 | inactive: 6.99%
15 | COc1ccc(OP(C)(=O)Nc2cccc(Br)c2)cc1 (stereo not given) | inactive: -3.35%
16 | CN(C)CCOC(=O)C(O)(c1ccccc1)C1CCCCC1 (stereo not given) | inactive: -2.92%
17 | COc1ccc(NP(C)(=O)Oc2ccccc2OC)cc1 (stereo not given) | inactive: 3.92% [at 57.1 µM]
18 | CP(=O)(Nc1ccc2c(c1)OCCO2)Oc1ccccc1 (stereo not given) | inactive: 11.3% [at 57.1 µM]
19 | Cc1ccccc1NP(C)(=O)Nc1ccccc1C | inactive: 9.82% [at 57.1 µM]
20 | CP(=O)(Nc1ccc(SC(F)(F)F)cc1)Oc1ccc(F)cc1 (stereo not given) | inactive: -6.27%
21 | CCOP(C)(=S)SCC(=O)NC(C)(CC)C(=O)O (stereo not given) | inactive: 22.7% [at 57.1 µM]
22 | O=C(OCCN1CCN(CCOCc2ccccc2)CC1)C(O)(c1ccccc1)c1ccccc1 | inactive: -6.05%
23 | CP(=O)(Nc1ccccc1F)Oc1ccccc1 (stereo not given) | inactive: 2.08%
24 | CC(C)c1ccc(OP(C)(=O)Nc2ccc(SC(F)(F)F)cc2)cc1 (stereo not given) | inactive: -9.98%
25 | Cc1c([N+](=O)[O-])cc([N+](=O)[O-])c(Br)c1[N+](=O)[O-] | inactive: -21.9%
26 | CCN(CC)CCCOC(=O)C(O)(c1ccccc1)C1CCCCC1 (stereo not given) | inactive: 4.71%
27 | CP(=O)(Nc1ccccc1)Oc1ccc(F)cc1 (stereo not given) | inactive: -6.38%
28 | CCCCCOc1ccc(NP(C)(=O)Oc2ccc(Cl)cc2Cl)cc1 (stereo not given) | inactive: -8.65%
29 | CCOC(=O)c1ccc(NP(C)(=O)Oc2ccc(F)cc2)cc1 (stereo not given) | inactive: 1.59%
30 | COc1ccc(OP(C)(=O)Nc2ccc(SC(F)(F)F)cc2)cc1 (stereo not given) | inactive: -2.35% [at 57.1 µM]
